Legend:
[1] = system: CYP2B6 versus CYP2A6; assay: Ratio of inhibition of human cytochrome P-450 2B6 to 2A6 was determined; Expressed as IC50(CYP2B6)/IC50(CYP2A6)
[2] = system: CYP2E1 versus CYP2A6; assay: Ratio of inhibition of human cytochrome P-450 2E1 to 2A6 was determined; Expressed as IC50(CYP2E1)/IC50(CYP2A6)
[3] = molecular target: Cytochrome P450 3A4 (Homo sapiens, UniProt P08684); assay: Inhibitory concentration value against human cytochrome P-450 3A4

Chains of the proteins cited; added tags and fusions are not shown.
UniProt P08684, whole entry: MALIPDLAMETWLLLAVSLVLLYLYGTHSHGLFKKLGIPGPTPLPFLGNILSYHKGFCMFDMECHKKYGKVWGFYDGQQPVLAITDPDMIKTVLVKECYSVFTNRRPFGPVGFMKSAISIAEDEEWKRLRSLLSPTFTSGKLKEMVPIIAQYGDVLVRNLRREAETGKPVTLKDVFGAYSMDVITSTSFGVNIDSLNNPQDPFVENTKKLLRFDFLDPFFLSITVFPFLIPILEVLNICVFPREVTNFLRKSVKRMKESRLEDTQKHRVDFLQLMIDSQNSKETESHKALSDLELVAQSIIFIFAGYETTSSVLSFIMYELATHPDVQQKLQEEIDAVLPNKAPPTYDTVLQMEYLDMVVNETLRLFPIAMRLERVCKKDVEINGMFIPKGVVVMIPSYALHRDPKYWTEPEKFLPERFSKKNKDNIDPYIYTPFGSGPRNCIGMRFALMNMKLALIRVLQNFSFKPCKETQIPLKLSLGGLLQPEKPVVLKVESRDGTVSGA

IC50 [3] [µM] | Compound | selectivity ratio [1] | selectivity ratio [2]
 | O/N=C\c1ccc(-c2cccnc2)o1 | 30 | > 95
57 | c1cncc(-c2cccs2)c1 |  | 

Reference: ChEMBL document CHEMBL1145288, “5-substituted, 6-substituted, and unsubstituted 3-heteroaromatic pyridine analogues of nicotine as selective inhibitors of cytochrome P-450 2A6” (J Med Chem, 2005)
